For 24 compounds, inhibition results are on record in PubChem BioAssay AID2557 (NMMLSC, 2010).

By UniProt entry, the sequences of proteins in these tests, tags left out.
UniProt P13612, whole entry, looked up: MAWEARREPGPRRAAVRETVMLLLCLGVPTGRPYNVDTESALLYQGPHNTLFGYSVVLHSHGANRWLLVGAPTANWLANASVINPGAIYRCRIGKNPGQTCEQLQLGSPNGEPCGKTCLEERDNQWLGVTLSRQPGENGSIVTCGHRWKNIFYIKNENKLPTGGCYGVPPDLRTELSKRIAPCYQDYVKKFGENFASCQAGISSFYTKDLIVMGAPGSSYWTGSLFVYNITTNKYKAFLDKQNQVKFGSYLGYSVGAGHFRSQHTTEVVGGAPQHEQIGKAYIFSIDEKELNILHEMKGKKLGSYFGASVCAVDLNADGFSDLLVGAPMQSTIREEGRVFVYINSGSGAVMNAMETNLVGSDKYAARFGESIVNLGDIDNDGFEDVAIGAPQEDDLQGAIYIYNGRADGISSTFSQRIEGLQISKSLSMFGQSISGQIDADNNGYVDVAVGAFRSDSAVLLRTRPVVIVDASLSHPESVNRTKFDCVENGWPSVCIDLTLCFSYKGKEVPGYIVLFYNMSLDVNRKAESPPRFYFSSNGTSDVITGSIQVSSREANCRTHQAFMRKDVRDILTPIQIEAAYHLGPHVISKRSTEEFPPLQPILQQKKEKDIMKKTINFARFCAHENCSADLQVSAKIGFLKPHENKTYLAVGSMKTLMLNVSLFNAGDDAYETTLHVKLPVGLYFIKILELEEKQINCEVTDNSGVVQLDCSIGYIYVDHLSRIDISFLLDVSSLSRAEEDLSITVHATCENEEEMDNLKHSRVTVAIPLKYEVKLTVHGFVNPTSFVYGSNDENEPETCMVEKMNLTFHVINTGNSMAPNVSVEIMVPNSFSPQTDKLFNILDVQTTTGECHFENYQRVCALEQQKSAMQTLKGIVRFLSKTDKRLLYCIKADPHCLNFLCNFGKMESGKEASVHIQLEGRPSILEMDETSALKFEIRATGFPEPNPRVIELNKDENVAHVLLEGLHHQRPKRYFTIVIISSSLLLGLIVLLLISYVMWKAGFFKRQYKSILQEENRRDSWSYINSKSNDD

Molecules are shown by their SMILES. The list shows a part of the results, in another mix than the full data. Some results for these compounds are left out of this collection, so the calls shown say nothing about other tests. The source made the active and inactive calls. No stated cut-off is given here; in the data, active means inhibition above about 50%; inactive means the rest.

The assay deals with Integrin alpha-4 (Homo sapiens) (UniProt P13612). The assay is described as follows: VLA-4 integrin binding inhibitors – MLPCN library, flow cytometry, VLA-4 expressing cells, VLA-4 allosteric modulator project, primary screen (AID 2557). The note with it: ligand binding flow cytometry, stronger effect = higher value, about 7 µM as worked out from the volumes in the protocol.
As to `Cc1ccc(C(=O)NCC2(N3CCCCC3)CCCCC2)cc1`, the inhibition was inactive: -8.27%.
On to `CCN(CC)CC(C)C(C)OC(=O)C(O)(c1ccccc1)c1ccccc1` (centres undefined), for which the inhibition was inactive: 1.52%.
The figure for `COc1cc(SC)ccc1C(=O)NCC1(N(C)C)CCCCC1` is inactive: 5.23%.
In the case of `CC(C)N1C(=O)CC2(CCN(CCOC(=O)C(O)(c3ccccc3)c3ccccc3)CC2)C1=O` it was inactive: -6.82%; in that of `CN1[C@@H]2CC[C@H]1CC(OC(=O)C(O)(c1ccccc1)c1ccccc1)C2` (some centres undefined), inactive: -2.5%.
The figure for `O=C(NCC1(N2CCCCC2)CCCCC1)c1cc([N+](=O)[O-])ccc1Cl` is inactive: -5.05%; for `COc1ccc(C(=O)NCC2(N(C)C)CCCCC2)cc1` it is inactive: -0.29%.
For `Cc1cc(C(=O)NCC2(N3CCCCC3)CCCCC2)ccc1[N+](=O)[O-]`, the inhibition was inactive: 0.94%.
In the case of `CCN1CCCC(OC(=O)C2(O)c3ccccc3C=Cc3ccccc32)C1` (centres undefined) it was inactive: -10.2%; in that of `O=C(NCC1(N2CCCCC2)CCCCC1)c1cccc(Br)c1`, inactive: -0.67%.
Consider `C=CCN1CCN(CCOC(=O)C(O)(c2ccccc2)c2ccccc2)CC1`, for which the inhibition is inactive: 6.41%.
In the case of `O=C(NCC1(N2CCCCC2)CCCCC1)c1cc(F)c(F)cc1Cl` it was inactive: -6.92%; in that of `Cc1ccccc1C(=O)NCC1(N2CCCCC2)CCCCC1`, inactive: -17.6%; in that of `CN(C)C1CCCC1OC(=O)C(O)(c1ccccc1)c1ccccc1` (centres undefined), inactive: 6.7%.
The figure for `CN(C)c1ccc(C(=O)NCC2(N(C)C)CCCCC2)cc1` is inactive: -4.73%; for `O=C(NCC1(N2CCCCC2)CCCCC1)c1cccc(Cl)c1` it is inactive: 11.6%; for `COc1cccc(C(=O)NCC2(N3CCCCC3)CCCCC2)c1` it is inactive: 7.23%.
The figure for `COc1ccc(Cl)cc1C(=O)NCC1(N(C)C)CCCCC1` is inactive: 12.2%.
Regarding `COc1cc(C(=O)NCC2(N(C)C)CCCCC2)c([N+](=O)[O-])cc1OC`, the inhibition was inactive: 2.18%.
In the case of `CN(C)C1(CNC(=O)c2ccc(Br)cc2)CCCCC1` it was inactive: 11%; in that of `CC(C)Oc1ccc(C(=O)NCC2(N(C)C)CCCCC2)cc1`, inactive: 17.1%; in that of `CN(C)c1cccc(C(=O)NCC2(N(C)C)CCCCC2)c1`, inactive: -8.87%.
In the case of `COc1ccc(Br)c(C(=O)NCC2(N3CCCCC3)CCCCC2)c1` it was inactive: -0.42%.
The figure for `O=C(OC1CN2CCC1CC2)C(CO)(c1ccccc1)c1ccccc1` (centres undefined) is inactive: 12.9%.
